Experimental data published in ChEMBL document CHEMBL5726850, “Substituted 1,2,3-triazoles as SMYD inhibitors for treating cancer” (2019).

Biological target: T1, Histone-lysine N-methyltransferase SMYD3 (Homo sapiens, UniProt Q9H7B4)
T1 sequence (Q9H7B4 whole entry): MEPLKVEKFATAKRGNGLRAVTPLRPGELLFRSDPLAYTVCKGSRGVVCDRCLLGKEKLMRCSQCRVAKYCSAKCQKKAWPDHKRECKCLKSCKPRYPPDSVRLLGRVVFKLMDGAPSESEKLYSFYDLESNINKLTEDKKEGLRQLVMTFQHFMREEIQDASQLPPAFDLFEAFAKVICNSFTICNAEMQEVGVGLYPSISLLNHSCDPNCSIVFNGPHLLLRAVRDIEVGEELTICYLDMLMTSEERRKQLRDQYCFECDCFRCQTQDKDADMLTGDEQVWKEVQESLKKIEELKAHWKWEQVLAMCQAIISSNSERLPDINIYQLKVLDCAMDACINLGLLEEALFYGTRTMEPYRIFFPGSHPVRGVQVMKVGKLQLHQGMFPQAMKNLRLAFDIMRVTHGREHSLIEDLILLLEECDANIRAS
Test: SMYD3 Biochemical Assay: The assays were all performed in a buffer consisting of 25 mM Tris-Cl pH 8.0, 1 mM TCEP, 0.005% BSG, and 0.005% Tween 20, prepared on the day of use. […] DMSO (1 ul) was added to Columns 11, 12, 23, 24, rows A-H for the maximum signal control and 1 ul of SAH, a known product and inhibitor of SMYD3, was added to columns 11, 12, 23, 24, rows I-P for the minimum signal control. A cocktail (40 ul) containing the SMYD3 enzyme was added by Multidrop Combi (Thermo-Fisher). The compounds were allowed to incubate with SMYD3 for 30 min at room temperature, then a cocktail (10 ul) containing SAM and MEKK2 was added to initiate the reaction (final volume=51 ul). […] The assays were stopped by the addition of non-radiolabeled SAM (10 ul) to a final concentration of 100 uM, which dilutes the 3H-SAM to a level where its incorporation into MEKK2 is no longer detectable. Radiolabeled MEKK2 was detected using a scintillation proximity assay (SPA). 10 uL of a 10 mg/mL solution of SPA beads in 0.5 M citric acid was added and the plates centrifuged at 600 rpm for 1 min to precipitate the radiolabeled MEKK2 onto the SPA beads. The plates were then read in a PerkinElmer TopCount plate reader to measure the quantity of 3H-labeled MEKK2 as disintegrations per minute (dpm) or alternatively, referred to as counts per minute (cpm).

C[C@H]1C[C@@H](NC(=O)c2ccc3c(c2)CC(=O)N3)CCN1C(=O)[C@H]1CC[C@H](N)CC1
IC50: 6.81 µM
